The results in this text go back to ChEMBL document CHEMBL4814043, “Optimization of a urea-containing series of nicotinamide phosphoribosyltransferase (NAMPT) activators” (Bioorg Med Chem Lett, 2021).

By UniProt entry, the sequences of proteins in these tests, tags left out. Where a name states a change or a piece, a line headed by the entry shows the natural chain unless it says otherwise.
UniProt P43490: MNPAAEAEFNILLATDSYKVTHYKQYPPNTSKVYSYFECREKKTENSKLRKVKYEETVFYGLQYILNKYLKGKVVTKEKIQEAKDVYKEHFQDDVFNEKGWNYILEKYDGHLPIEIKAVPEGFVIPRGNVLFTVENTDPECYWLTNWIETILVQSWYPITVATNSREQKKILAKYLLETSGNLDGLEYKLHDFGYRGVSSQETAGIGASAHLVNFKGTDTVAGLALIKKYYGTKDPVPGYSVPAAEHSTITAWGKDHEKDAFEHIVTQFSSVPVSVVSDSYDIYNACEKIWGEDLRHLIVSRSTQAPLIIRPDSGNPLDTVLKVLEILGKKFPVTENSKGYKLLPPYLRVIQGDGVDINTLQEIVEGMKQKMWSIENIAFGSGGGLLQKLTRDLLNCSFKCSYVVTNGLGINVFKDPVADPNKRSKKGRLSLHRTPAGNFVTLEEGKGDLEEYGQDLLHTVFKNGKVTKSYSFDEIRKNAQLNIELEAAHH

The target in the assay is Nicotinamide phosphoribosyltransferase (Homo sapiens, UniProt P43490). Briefly: Activation of human NAMPT.

A word on the EC50: it is the concentration that produces a half-maximal response. Higher therefore signals weaker potency.

`CCOC(=O)c1ccc(NC(=O)NCc2ccncc2)cc1` displayed a 50% effective concentration (EC50) of 3.25 µM.
